Target: Carbonic anhydrase 1 (Homo sapiens, UniProt P00915)

Sequences of proteins named here, by UniProt entry; tags and fusion partners are left off. A change or cut given only in a name is not applied to a line headed by its entry.
UniProt P00915: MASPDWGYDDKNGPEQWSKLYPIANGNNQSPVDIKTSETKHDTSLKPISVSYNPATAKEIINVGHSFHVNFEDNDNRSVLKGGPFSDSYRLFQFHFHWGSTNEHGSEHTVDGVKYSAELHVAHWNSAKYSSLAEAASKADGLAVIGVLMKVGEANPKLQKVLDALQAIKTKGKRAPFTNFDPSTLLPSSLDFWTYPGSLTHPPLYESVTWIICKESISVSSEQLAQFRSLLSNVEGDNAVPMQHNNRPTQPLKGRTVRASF

F [FLUORIDE ION]
Ki: > 300 mM

— ChEMBL document CHEMBL1138690, “Carbonic anhydrase inhibitors. Inhibition of the newly isolated murine isozyme XIII with anions” (Bioorg Med Chem Lett, 2004)
